Results taken from US8476272B2 (dated 2013).
Read-outs that look alike come from different tables or passages of the source.

Test system: serum DPP4
Details: 10 mg/kg oral, single dose

Structure (SMILES): N[C@@H](CC(=O)N1CCn2c(nnc2C(F)(F)F)C1)Cc1cc(F)c(F)cc1F [MK-0431]
- DPP4 specific activity % (0 h (before administration)): 100.0%
- DPP4 specific activity % (1 h): 35.7 ± 9.8%
- DPP4 specific activity % (3 h): 12.2 ± 1.0%
- DPP4 specific activity % (9 h): 39.0 ± 3.0%
- DPP4 specific activity % (12 h): 48.9 ± 3.6%
- DPP4 specific activity % (24 h): 62.5 ± 2.0%
